Each compound was assayed against T1, phosphorylation of Y397-FAK in MDA-231-LNA cells (Homo sapiens, UniProt Q05397) (assay: cell-based).
T1 construct: endogenous in cells; host or cells: MDA-231-LNA cells

The chains behind the UniProt entries cited, without tags or fusion partners.
UniProt Q05397, whole entry: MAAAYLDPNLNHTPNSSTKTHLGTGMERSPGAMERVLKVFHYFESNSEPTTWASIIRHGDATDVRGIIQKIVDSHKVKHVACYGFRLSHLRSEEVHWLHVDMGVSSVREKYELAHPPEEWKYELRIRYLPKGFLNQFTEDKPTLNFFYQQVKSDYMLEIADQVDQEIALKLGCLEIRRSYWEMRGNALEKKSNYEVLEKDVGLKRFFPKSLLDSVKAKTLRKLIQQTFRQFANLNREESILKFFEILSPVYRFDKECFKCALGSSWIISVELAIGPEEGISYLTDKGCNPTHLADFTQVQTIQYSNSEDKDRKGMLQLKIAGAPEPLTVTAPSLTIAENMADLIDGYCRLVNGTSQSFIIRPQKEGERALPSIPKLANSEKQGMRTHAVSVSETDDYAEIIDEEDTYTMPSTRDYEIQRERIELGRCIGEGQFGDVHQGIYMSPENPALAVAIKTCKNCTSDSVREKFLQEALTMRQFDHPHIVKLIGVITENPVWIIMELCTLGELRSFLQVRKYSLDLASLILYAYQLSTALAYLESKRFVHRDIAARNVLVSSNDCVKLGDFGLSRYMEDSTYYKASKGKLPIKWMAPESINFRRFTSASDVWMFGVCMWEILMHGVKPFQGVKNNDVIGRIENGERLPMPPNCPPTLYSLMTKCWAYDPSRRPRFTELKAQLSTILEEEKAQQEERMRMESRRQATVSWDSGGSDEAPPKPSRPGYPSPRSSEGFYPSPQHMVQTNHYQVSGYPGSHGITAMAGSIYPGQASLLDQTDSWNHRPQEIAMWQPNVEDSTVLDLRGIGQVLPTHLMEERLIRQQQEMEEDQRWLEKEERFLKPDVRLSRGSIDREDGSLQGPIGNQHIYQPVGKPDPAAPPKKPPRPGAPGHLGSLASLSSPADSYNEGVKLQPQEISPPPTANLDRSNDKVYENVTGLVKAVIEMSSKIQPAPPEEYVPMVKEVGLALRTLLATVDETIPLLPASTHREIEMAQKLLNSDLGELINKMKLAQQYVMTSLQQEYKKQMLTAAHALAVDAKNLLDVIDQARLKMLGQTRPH

Row | SMILES | IC50 [nM]
1 | CCN1CCC(c2ccc(Nc3ncc(C(F)(F)F)c(CCc4ccccc4CC(N)=O)n3)cc2)CC1 [Compound 31, 2-(2-(2-(2-((4-(1-Ethylpiperidin-4-yl)phenyl)amino)-5-(trifluoromethyl)pyrimidin-4-yl)ethyl)phenyl)acetamide] | 39
2 | CN1CCN(c2ccc(Nc3ncc(C(F)(F)F)c(CCc4ccccc4CC(N)=O)n3)cc2)CC1 [Compound 3] | 27
3 | CN1CCCCC1c1ccc(Nc2ncc(C(F)(F)F)c(CCc3ccccc3CC(N)=O)n2)cc1 (stereo not shown) [Compound 9] | 214
4 | CN1CCN(c2cccc(Nc3ncc(C(F)(F)F)c(CCc4cccc(C(N)=O)c4)n3)c2)CC1 [Compound 6, 3-(2-(2-((3-(4-Methylpiperazin-1-yl)phenyl)amino)-5-(trifluoromethyl)pyrimidin-4-yl)ethyl)benzamide] | 440
5 | NC(=O)Cc1ccccc1CCc1nc(Nc2ccc3c(c2)CCNC3)ncc1C(F)(F)F [Compound 21, 2-(2-(2-(2-((1,2,3,4-Tetrahydroisoquinolin-6-yl)amino)-5-(trifluoromethyl)pyrimidin-4-yl)ethyl)phenyl)acetamide] | 1
6 | CNC(=O)Cc1ccccc1CCc1nc(Nc2ccc(N3CCNCC3)cc2)ncc1C(F)(F)F [Compound 14, N-Methyl-2-(2-(2-(2-((4-(piperazin-1-yl)phenyl)amino)-5-(trifluoromethyl)pyrimidin-4-yl)ethyl)phenyl)acetamide] | 572
7 | NC(=O)Cc1ccccc1CCc1nc(Nc2ccc(C3CCCCN3)cc2)ncc1C(F)(F)F (stereo not shown) [Compound 8, 2-(2-(2-(2-((4-(Piperidin-2-yl)phenyl)amino)-5-(trifluoromethyl)pyrimidin-4-yl)ethyl)phenyl)acetamide] | 124
8 | NC(=O)Cc1ccccc1CCc1nc(Nc2ccc(N3CCNCC3)cc2)ncc1C(F)(F)F [Compound 1, 2-(2-(2-(2-((4-(piperazin-1-yl)phenyl)amino)-5-(trifluoromethyl)pyrimidin-4-yl)ethyl)phenyl)acetamide] | 59
9 | NC(=O)Cc1ccccc1CCc1nc(Nc2ccc(N3CCC(N)CC3)cc2)ncc1C(F)(F)F [Compound 20, 2-(2-(2-(2-((4-(4-Aminopiperidin-1-yl)phenyl)amino)-5-(trifluoromethyl)pyrimidin-4-yl)ethyl)phenyl)acetamide] | 13
10 | NC(=O)Cc1ccccc1CCc1nc(Nc2ccc(C3CNCCO3)cc2)ncc1C(F)(F)F (stereo not shown) [Compound 22, 2-(2-(2-(2-((4-(morpholin-2-yl)phenyl)amino)-5-(trifluoromethyl)pyrimidin-4-yl)ethyl)phenyl)acetamide] | 23
11 | NC(=O)Cc1ccccc1CCc1nc(Nc2ccc(C3CCCNC3)cc2)ncc1C(F)(F)F (stereo not shown) [Compound 4, 2-(2-(2-(2-((4-(Piperidin-3-yl)phenyl)amino)-5-(trifluoromethyl)pyrimidin-4-yl)ethyl)phenyl)acetamide] | 140
12 | CNC(=O)Cc1ccccc1CCc1nc(Nc2cccc(N3CCN(C)CC3)c2)ncc1C(F)(F)F [Compound 18] | 880
13 | CC(C(N)=O)c1ccccc1CCc1nc(Nc2ccc(C3CCNCC3)cc2)ncc1C(F)(F)F (stereo not shown) [Compound 12, 2-(2-(2-(2-((4-(Piperidin-4-yl)phenyl)amino)-5-(trifluoromethyl)pyrimidin-4-yl)ethyl)phenyl)propanamide] | 522
14 | CN1CCN(c2cccc(Nc3ncc(C(F)(F)F)c(CCc4ccccc4CC(N)=O)n3)c2)CC1 [Compound 17, 2-(2-(2-(2-((3-(4-Methylpiperazin-1-yl)phenyl)amino)-5-(trifluoromethyl)pyrimidin-4-yl)ethyl)phenyl)acetamide] | 60
15 | NC(=O)Cc1ccccc1CCc1nc(Nc2ccc(C3CCNCC3)cc2)ncc1C(F)(F)F [Compound 11, 2-(2-(2-(2-((4-(Piperidin-4-yl)phenyl)amino)-5-(trifluoromethyl)pyrimidin-4-yl)ethyl)phenyl)acetamide] | 116
16 | CN1CCN(c2ccc(Nc3ncc(C(F)(F)F)c(CCc4cccc(C(N)=O)c4)n3)cc2)CC1 [Compound 2, 3-(2-(2-((4-(4-Methylpiperazin-1-yl)phenyl)amino)-5-(trifluoromethyl)pyrimidin-4-yl)ethyl)benzamide] | 58

— patent US20130324532A1 (priority 2011, published 2013)
